This series is described as follows: Equilibrium solubility in excipients, vehicles and emulsion preconcentrates. The settings on record: vehicle Caprylic acid. The format is physicochemical. How it is done:
The solubility of CETP inhibitors in excipients and in formulations was determined by adding an excess of compound to the medium in question. The mixture was agitated by rotation over a period of days at ambient temperature until the concentration in solution had reached an equilibrium as judged by similar measurements for consecutive time points. Concentrations were measured by filtration of aliquots with a PTFE syringe filter and assay by HPLC as described in Example 11.
The solubility of crystalline CETP inhibitors in representative vehicles was determined by adding an excess of compound to the vehicle in question. The mixture was agitated by rotation over a period of days at ambient temperature until the concentration in solution had reached equilibrium as judged by similar measurements for consecutive time points. Concentrations were measured by filtration of aliquots with a PTFE syringe filter and assayed by HPLC.
The concentrations of CETP inhibitor in each vehicle were assayed at intervals by dilution of aliquots into acetonitrile and gradient HPLC analysis on a Water Symmetry C-8 column (3.9×150 mm, 5 micron) at 30° C. at a flow rate of 1 mL/min. […] The detection method was UV absorbance at 210 nm.

The structures appear in SMILES notation.

For `CCOC(=O)N1c2ccc(C(F)(F)F)cc2[C@@H](N(Cc2cc(C(F)(F)F)cc(C(F)(F)F)c2)C(=O)OC)C[C@H]1CC` [Compound A, [2R,4S] 4-[(3,5-bis-trifluoromethyl-benzyl)-methoxycarbonyl-amino]-2-ethyl-6-trifluoromethyl-3,4-dihydro-2H-quinoline-1-carboxylic acid ethyl ester], the Solubility came to 145 mgA/ml.

The values are drawn from patent US6962931B2, “Self-emulsifying formulations of cholesteryl ester transfer protein inhibitors” (Pfizer Inc., priority 2001, dated 2005).
